Reference: ChEMBL document CHEMBL5335800, “Focused Screening Identifies Different Sensitivities of Human TET Oxygenases to the Oncometabolite 2-Hydroxyglutarate” (J Med Chem, 2024)

Amino acid sequences for entries named in this document (tags omitted). A change or cut given only in a name is not applied to a line headed by its entry.
UniProt Q8NFU7: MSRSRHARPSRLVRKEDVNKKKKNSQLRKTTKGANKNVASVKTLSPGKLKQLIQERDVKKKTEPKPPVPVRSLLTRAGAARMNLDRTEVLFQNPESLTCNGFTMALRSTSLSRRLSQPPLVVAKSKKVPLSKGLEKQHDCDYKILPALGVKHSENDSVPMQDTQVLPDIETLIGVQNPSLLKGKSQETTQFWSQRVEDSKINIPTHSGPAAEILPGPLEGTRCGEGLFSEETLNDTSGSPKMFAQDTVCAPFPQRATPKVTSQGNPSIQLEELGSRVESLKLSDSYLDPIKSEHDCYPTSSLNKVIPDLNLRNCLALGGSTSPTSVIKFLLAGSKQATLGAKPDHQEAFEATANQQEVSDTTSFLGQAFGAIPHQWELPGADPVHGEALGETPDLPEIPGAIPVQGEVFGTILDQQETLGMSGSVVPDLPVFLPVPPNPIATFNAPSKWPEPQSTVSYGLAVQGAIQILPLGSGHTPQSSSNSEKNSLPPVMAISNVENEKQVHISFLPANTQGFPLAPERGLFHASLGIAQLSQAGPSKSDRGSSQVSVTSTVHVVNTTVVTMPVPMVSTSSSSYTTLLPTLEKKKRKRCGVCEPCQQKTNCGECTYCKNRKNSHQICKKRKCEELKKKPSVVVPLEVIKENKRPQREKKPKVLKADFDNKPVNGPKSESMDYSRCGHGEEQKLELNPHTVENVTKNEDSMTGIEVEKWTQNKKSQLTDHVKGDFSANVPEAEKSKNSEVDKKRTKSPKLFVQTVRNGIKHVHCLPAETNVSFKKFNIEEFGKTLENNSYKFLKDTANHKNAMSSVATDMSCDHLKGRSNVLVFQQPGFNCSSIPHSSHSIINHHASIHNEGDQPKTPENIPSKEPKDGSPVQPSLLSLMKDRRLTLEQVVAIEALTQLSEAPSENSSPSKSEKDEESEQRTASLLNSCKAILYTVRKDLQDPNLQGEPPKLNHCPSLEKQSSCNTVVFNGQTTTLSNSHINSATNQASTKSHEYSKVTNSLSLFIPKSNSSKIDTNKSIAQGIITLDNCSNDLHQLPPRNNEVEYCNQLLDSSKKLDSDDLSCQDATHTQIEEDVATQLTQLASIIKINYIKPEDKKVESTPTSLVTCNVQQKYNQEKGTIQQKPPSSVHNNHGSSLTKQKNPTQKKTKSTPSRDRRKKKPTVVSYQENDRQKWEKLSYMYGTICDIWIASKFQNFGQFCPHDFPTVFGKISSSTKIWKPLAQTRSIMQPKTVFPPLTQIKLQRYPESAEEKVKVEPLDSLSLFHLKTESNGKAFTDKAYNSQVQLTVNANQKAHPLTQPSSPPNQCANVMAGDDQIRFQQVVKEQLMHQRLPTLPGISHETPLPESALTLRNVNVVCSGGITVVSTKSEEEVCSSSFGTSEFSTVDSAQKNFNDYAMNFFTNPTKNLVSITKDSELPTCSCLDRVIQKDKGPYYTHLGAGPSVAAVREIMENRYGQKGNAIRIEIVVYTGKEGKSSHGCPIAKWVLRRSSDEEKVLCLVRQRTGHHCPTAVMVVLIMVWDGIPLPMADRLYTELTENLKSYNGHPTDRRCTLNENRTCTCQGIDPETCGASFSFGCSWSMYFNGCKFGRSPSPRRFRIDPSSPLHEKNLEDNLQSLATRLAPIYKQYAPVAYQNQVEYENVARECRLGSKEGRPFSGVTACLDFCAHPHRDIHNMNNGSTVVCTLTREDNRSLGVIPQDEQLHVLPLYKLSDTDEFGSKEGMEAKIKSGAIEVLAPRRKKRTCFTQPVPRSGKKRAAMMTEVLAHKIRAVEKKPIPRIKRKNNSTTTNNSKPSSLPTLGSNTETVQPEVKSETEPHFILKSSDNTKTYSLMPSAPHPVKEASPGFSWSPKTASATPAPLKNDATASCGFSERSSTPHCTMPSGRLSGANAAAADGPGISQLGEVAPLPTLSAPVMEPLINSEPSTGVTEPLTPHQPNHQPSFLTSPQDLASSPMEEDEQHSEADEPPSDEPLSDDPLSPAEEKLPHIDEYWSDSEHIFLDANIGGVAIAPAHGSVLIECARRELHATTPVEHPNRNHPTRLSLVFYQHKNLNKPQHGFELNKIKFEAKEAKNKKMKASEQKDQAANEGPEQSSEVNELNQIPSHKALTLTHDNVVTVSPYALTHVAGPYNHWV

Assays:
[1] = biological target: T1, Methylcytosine dioxygenase TET1 (Homo sapiens, UniProt Q8NFU7)
Homo sapiens [2] = organism: Homo sapiens; experiment: Inhibition of N-terminal His-tagged recombinant human TET2 catalytic domain LCIdel mutant (D1129 to G1936 residues with Y1481 to N1843 replaced by a 3 x GGGGS linker) expressed in Escherichia coli BL21 (DE3) using 5-methylcytosine as substrate at 100 uM preincubated for 10 mins followed by DNA-cofactor addition and measured after 10 mins by Alphascreen assay relative to control; settings: time 20.0 min
Homo sapiens [3] = organism: Homo sapiens; settings: dose 100.0 µM, time 20.0 min
[4] = biological target: T1, Methylcytosine dioxygenase TET1; experiment: Inhibition of N-terminal 3xFlag-tagged human TET1 catalytic domain (E1418 to V2136 residues) expressed in Sf9 cells using 5-methylcytosine as substrate at 100 uM preincubated for 10 mins followed by DNA-cofactor addition and measured after 30 mins by Alphascreen assay relative to control; settings: time 40.0 min

Compound	EC50 [1]	inhibition (Homo sapiens [2])	inhibition (Homo sapiens [3])	inhibition [4]
O=C(O)CNC(=O)c1c(O)n(C2CCCCC2)c(=O)n(C2CCCCC2)c1=O	> 1000 µM	–	–	–
O=c1c(-n2ccnn2)c[nH]n1-c1cc(N2CCOCC2)ncn1 [MOLIDUSTAT]	–	< 20%	< 20%	< 20%
